Measured values reported in PMC4447534 (ChemMedChem, 2015).

Tested on: T. cruzi (amastigotes)
Settings: selectivity index, Vero cells versus T. cruzi

## N#CSCCOc1ccc(Oc2ccccc2)cc1 [WC-9, 4-phenoxyphenoxyethyl thiocyanate, reference compound]
  SI (T. cruzi): 16.5
